Experimental data as given in patent US20060183796A1, “Method for the medicinal prophylaxis of cholinesterase inhibitor intoxication, and active substances and medicaments suitable therefor” (published 2006).

Columns and labels:
[1] = in vivo; cited from earlier work
[2] = free base or acid addition salt; cited from earlier work
[3] = approved medicament for Alzheimer's disease; cited from earlier work
[4] = tested on: enzyme cholinesterase in the blood; assay: Preliminary test: blood cholinesterase inhibition after oral capsule in piglets; details: piglets 12 kg, 6 mg orally as capsule, two hours after administration

Structure (SMILES)	absorption from the gastrointestinal tract [1]	crossing of the blood-brain barrier [1]	ability to penetrate the skin [2]	side effects [3]	inhibition of the enzyme cholinesterase in the blood [4]
CCN(C)C(=O)Oc1cccc([C@H](C)N(C)C)c1	absorbed well	easily crosses the blood-brain barrier	able to penetrate the skin	no serious side effects are known	20-40%
CN1[C@@H]2C[C@@H](OC(=O)[C@H](CO)c3ccccc3)C[C@H]1[C@@H]1O[C@@H]12			able to penetrate the skin		
